# Only a part is listed here, and it is no random draw. Some results for these compounds are left out of this collection, so the calls shown say nothing about other tests. The source made the active and inactive calls.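 How the source made its calls: active means viability at or below the median of all test compounds minus 3 SD, in both replicates if run twice (cut at about 45% in these data); inconclusive means duplicate replicates that disagree with each other; inactive means viability above that cutoff in every replicate.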
# Assay: viability loss of SK-BR-3 cells – cell-based, human, 24 h, primary screen (AID 847);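 further: 100% = median untreated cell wells and 0% = median positive control drug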
# Conditions: SK-BR-3 viability, CellTiter-Glo ATP luminescence, at 10 µM, hits give low values
row,Compound,viability
1,O=C(OC1CN2CCC1CC2)C(CO)(c1ccccc1)c1ccccc1 (stereo unspecified),inactive: 90%

# From PubChem BioAssay AID847 (SRMLSC, 2007)
